These results are taken from ChEMBL document CHEMBL3862030, “Identification of the minimum PAR4 inhibitor pharmacophore and optimization of a series of 2-methoxy-6-arylimidazo[2,1-b][1,3,4]thiadiazoles” (Bioorg Med Chem Lett, 2016).

In assay [1] the target is T1, Proteinase-activated receptor 4 (Homo sapiens, UniProt Q96RI0).
T1 sequence (Q96RI0 whole entry): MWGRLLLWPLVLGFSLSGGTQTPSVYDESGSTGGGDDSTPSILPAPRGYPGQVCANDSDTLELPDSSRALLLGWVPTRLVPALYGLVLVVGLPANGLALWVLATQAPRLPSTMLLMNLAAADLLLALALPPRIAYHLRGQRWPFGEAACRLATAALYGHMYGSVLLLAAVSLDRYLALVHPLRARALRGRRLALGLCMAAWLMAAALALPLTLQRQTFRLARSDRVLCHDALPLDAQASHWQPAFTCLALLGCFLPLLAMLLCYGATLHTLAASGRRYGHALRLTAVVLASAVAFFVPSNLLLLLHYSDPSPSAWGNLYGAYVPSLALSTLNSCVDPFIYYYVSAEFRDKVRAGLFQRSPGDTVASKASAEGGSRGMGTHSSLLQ
Put plainly: Antagonist activity at PAR4 in human platelets assessed as inhibition of activating peptide-induced PAC1 binding response preincubated for 20 mins followed by agonist addition for 20 mins by FITC-based flow cytometric analysis. The essentials:
(§1)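 Human platelets were activated with 200 μM PAR4-AP. The read-outs were PAC-1 binding and P-selectin exposure, measured by flow cytometry. IC50 and pIC50 were taken from concentration–response curves, n=3, mean±SEM.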
On the technique in general: In flow cytometry, cells or beads pass a laser one at a time.

Assay [2] has as its target T1, Proteinase-activated receptor 4. The experiment in a line: Antagonist activity at PAR4 in human platelets assessed as inhibition of gamma-thrombin-induced PAC1 binding response preincubated for 20 mins followed by agonist addition for 20 mins by FITC-based flow cytometric analysis. The essentials: (§2)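 Human platelets were stimulated with γ-thrombin at 100 nM. Activation was read by flow cytometry as PAC-1 binding and P-selectin surface expression. IC50 and pIC50 were derived from concentration–response data, n=3, reported as mean±SEM.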

Assay [3] has the same target. The experiment in a line: Antagonist activity at PAR4 in human platelets assessed as inhibition of activating peptide-induced P-selectin activation. An outline of the steps:
as §1

The target is the same in assay [4]. The experiment in a line: Antagonist activity at PAR4 in human platelets assessed as inhibition of gamma-thrombin-induced P-selectin activation. An outline of the steps:
as §2

`COc1nn2cc(-c3ccc(Cl)c(Cl)c3)nc2s1`: the figures for the IC50 in assay [1] (read-out: IC50) and in assay [2] (read-out: IC50) were 28.5 nM and 1460 nM, respectively.

As for `COc1nn2cc(-c3ccc(F)c(C(F)(F)F)c3)nc2s1`, the IC50 in assay [2] (read-out: IC50) worked out at 1090 nM.

For the molecule `COc1nn2cc(-c3cccc(C(F)(F)F)c3)nc2s1`, the IC50 in assay [1] (read-out: IC50) amounted to 36.3 nM; in assay [2] (read-out: IC50), 1310 nM.

In the case of `COc1nn2cc(-c3ccc(OC(F)(F)F)cc3)nc2s1`, the IC50 in assay [1] (read-out: IC50) was 27.7 nM; in assay [1] (read-out: pIC50 (converted)) it was 26.9 nM; in assay [2] (read-out: IC50) it was 246 nM; in assay [2] (read-out: pIC50 (converted)), 229 nM; in assay [3], 26.9 nM; in assay [4], 352 nM.

Regarding `COc1nn2cc(-c3ccc(C(F)(F)F)cc3)nc2s1`, the results for the IC50 in assay [1] (read-out: IC50), in assay [3] and in assay [4] were 15.6 nM, 11.2 nM and 398 nM, respectively.

As for `COc1nn2cc(-c3ccc(Cl)cc3)nc2s1`, the IC50 in assay [1] (read-out: IC50) was 39.5 nM; in assay [2] (read-out: IC50) it was 621 nM; in assay [3] it was 286 nM; in assay [4] it was 621 nM.
